Molecular target: T1, FCF19-FtsZ (Burkholderia cenocepacia, UniProt B4E5Y7, A348P/P347Q/Q349H)
T1 sequence (B4E5Y7 1-398 P347Q/A348P/Q349H): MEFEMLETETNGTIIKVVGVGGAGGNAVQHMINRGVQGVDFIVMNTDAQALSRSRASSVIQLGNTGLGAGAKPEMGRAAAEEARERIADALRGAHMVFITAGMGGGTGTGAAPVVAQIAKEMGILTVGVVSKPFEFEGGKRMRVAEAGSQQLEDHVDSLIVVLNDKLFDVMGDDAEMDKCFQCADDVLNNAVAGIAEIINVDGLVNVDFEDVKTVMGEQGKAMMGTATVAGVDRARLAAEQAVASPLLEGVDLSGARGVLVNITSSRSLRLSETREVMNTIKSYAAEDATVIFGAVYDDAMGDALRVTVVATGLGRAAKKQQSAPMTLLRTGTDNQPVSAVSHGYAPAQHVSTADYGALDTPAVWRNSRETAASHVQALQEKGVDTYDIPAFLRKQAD
Assay: FtsZ GTPase activity assay (kinetics and inhibition)
Type: biochemical

COC(=O)CSc1ccc2nsnc2c1[N+](=O)[O-] [C109, methyl [(4-nitro-2,1,3-benzothiadiazol-5-yl)thio]acetate]
IC50: 8.8 ± 1.6 µM
